The values below come from US12285474B2, “Vsg-based vaccination and antibody generation platform for the treatment of diseases” (dated 2025).

The assay concerns mice. The note with it: naloxone 0.1 mg/kg s.c. 15 minutes after final fentanyl dose; unimmunized and VSG3-only immunized mice.

In the case of `C=CCN1CC[C@]23c4c5ccc(O)c4O[C@H]2C(=O)CC[C@@]3(O)[C@H]1C5`, the “reversal of fentanyl-induced antinociception” value was “completely reversed”.
